Experimental data: patent US4481203A, “Composition containing 1-(n-hexylcarbamoyl)-5-fluorouracil and uracil” (priority 1977, dated 1984)

Columns and labels:
sarcoma 180 [1] = assay: Therapeutic index (LD50/ED50) in mice (Table 5); assay type: in vivo, male mice of ICR strain; settings: oral
Excerpt: The LD50 and ED50 values obtained above are used to determine the therapeutic index (LD50 /ED50).

sarcoma 180 [2] = assay: Therapeutic effect on sarcoma 180 transplanted in mice (Table 5); assay type: in vivo, male mice of ICR strain; settings: oral, uracil (b)/(a) mol ratio 0, as amount of 5-fluorouracil (a), 14400 min
Procedure: (5) The anti-cancer compositions of this invention are tested in mice by the following methods to determine acute toxicity, therapeutic effect and theapeutic index.
Tissues of sarcoma 180, 2×10^6, are subcutaneously transplanted in the back of male mice of ICR strain (6 mice in each group). A 5-fluorouracil (a) and uracil (b) in the proportions listed in Table 5 are suspended in a 5% solution of gum arabic to prepare a suspension. Twenty-four hours after the transplantation and during the following seven consecutive days the suspension is orally given to the animal once every day. On the 10th day after the transplantation, the tumor is removed from the body and weighed to calculate the average weight (T) of the tumors in the group to which the composition has been given and the corresponding weight (C) in the control group to determine the ratio T/C. The effective dose (ED50) for achieving 50% cancer inhibition is determined from the dose-response curve involving the dose and effect (T/C).

Structure (SMILES) | Therapeutic index (LD50/ED50) (sarcoma 180 [1]; uracil (b)/(a) mol ratio 0) | Therapeutic index (LD50/ED50) (sarcoma 180 [1]; uracil (b)/(a) mol ratio 2.5) | ED50 (sarcoma 180 [2]) [mg/kg]
O=c1[nH]cc(F)c(=O)[nH]1 [Compound 1, 5-Fluorouracil] | 6.2 | 13.5 | 
CCOCn1cc(F)c(=O)[nH]c1=O [Compound 5, 1-Ethoxymethyl-5-fluorouracil] | 8.9 | 17.2 | 112
O=c1[nH]c(=O)n(S(=O)(=O)c2ccccc2)cc1F [Compound 8, 1-Benzenesulfonyl-5-fluorouracil] |  | 11.1 | 
